Values of other authors as cited in PMC3299084 (Journal of Medicinal Chemistry, 2012).

Sequences of proteins named here, by UniProt entry; tags and fusion partners are left off. Residues count along the entry.
UniProt P29317, 24-537: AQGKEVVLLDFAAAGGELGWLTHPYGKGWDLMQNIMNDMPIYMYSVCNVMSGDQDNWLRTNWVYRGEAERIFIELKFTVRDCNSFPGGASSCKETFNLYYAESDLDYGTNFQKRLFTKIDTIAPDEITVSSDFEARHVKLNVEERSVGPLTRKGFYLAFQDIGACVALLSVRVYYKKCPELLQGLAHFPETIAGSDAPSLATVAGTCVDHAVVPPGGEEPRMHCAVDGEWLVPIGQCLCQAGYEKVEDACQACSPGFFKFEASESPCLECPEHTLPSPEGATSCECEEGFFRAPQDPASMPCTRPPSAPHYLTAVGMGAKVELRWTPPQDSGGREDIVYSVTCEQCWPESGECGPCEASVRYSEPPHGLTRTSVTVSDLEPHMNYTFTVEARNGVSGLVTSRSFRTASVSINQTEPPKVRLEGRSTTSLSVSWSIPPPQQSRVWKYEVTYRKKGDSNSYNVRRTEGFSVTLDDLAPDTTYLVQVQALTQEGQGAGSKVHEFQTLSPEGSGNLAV

Biological target: EphA2 (Homo sapiens, UniProt P29317)
Settings: cited from earlier work

YSA peptide
Kd: 200 nM
